The target of test [1] is T1, PoloBoxtide-optimal, MAGPMQ-S-pT-P-LNGAKK.
T1 construct: Synthetic; core Met-Gln-Ser-pThr-Pro-Leu; also called optimal phosphopeptide ligand; optimal PBD phosphopeptide
T1 peptide: MAGPMQS[pT]PLNGAKK
Kind of test: isothermal titration calorimetry. (ITC needs no label: the signal is the heat of the interaction.)

For test [2], the target named is T2, Cdc25C, mitotically phosphorylated (up-shifted) form, endogenous in nocodazole-arrested HeLa cells (human, UniProt P30307 1-473, limits assumed, extensively phosphorylated at the N-terminus in mitosis, including phosphothreonine at 130).
T2 construct: also called mitotically up-shifted form of Cdc25C; mitotically phosphorylated Cdc25C
T2 sequence (looked up): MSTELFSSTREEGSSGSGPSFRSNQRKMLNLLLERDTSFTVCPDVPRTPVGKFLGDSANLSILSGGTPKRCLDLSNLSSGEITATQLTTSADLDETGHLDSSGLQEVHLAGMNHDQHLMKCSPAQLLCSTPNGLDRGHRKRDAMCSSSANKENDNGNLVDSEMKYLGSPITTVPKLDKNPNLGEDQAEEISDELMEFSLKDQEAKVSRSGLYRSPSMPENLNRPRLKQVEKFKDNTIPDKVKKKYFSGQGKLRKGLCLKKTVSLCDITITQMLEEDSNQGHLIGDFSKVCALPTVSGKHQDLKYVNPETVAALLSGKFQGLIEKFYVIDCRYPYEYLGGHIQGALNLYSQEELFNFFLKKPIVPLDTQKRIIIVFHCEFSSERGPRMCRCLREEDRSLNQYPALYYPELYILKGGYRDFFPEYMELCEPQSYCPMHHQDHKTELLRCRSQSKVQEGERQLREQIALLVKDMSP
Kind of test: Ni2+ bead pull-down from nocodazole-arrested transfected HeLa cells, blot α-Cdc25.

Substitutions are numbered along the chain they refer to. Names and notes keep the numbering of the source. Non-standard residues stand in square brackets, D forms with d. No end group written: not given here. pT = C[C@@H](OP(=O)(O)O)[C@H](N)C(=O)O

B1: Plk1 PBD (residues 326-603) H538A/K540M (other)
chain: SIAPSSLDPSNRKPLTVLNKGLENPLPERPREKEEPVVRETGEVVDCHLSDMLQQLHSVNASKPSERGLVRQEEAEDPACIPIFWVSKWVDYSDKYGLGYQLCDNSVGVLFNDSTRLILYNDGDSLQYIERDGTESYLTVSSHPNSLMKKITLLKYFRNYMSEHLLKAGANITPREGDELARLPYLRTWFRTRSAIILHLSNGSVQINFFQDATMLILCPLMAAVTYIDEKRDFRTYRLSLLEEYGCCKELASRLRYARTMVDKLLSSRSASNRLKAS
notes: also called His/Lys pincer mutant
Consider B1, for which the binding result in test [1] is on record as “no binding (tested: molar ratio about 2.7)”.

B2: His-Xpress-tagged Plk1 PBD (residues 326-603) H538A/K540M (other)
chain: B1 chain
notes: the text speaks of the mutants in the plural without naming them there; not shown: His-Xpress tag
Turning to B2, the binding result in test [2] is “no binding”.

B3: His-Xpress-tagged Plk1 PBD (residues 326-603) H538E/K540M (other)
chain: B1 chain with A213E
notes: as for B2
Consider B3, for which, in test [2], the binding result is “no binding”.

Source of the values: patent US20050196808A1 (published 2005).
